Experimental data published in ChEMBL document CHEMBL5584220, “Design, synthesis, and biological evaluation of aralkyl piperazine and piperidine derivatives targeting SSRI/5-HT1A/5-HT7” (Bioorg Med Chem, 2024).

Assays:
in vitro [1] = settings: mouse, liver microsomes
in vitro [2] = settings: human, liver microsomes

Row | SMILES | microsomal CLint at 1 µM (in vitro [1]) [µL/min/mg] | microsomal CLint at 1 µM (in vitro [2]) [µL/min/mg]
1 | CCOc1ccccc1N1CCN(CCCc2c[nH]c3ccc(F)cc23)CC1 | 84.3 | 32.4
2 | COc1ccccc1N1CCN(CCCc2c[nH]c3ccc(F)cc23)CC1 | 152 | 37.7
3 | CSc1ccccc1N1CCN(CCCc2c[nH]c3ccc(F)cc23)CC1 | 79.7 | 26
